Like-named read-outs stand apart in the source and are kept apart here.
How the values were obtained:
[1] = Pharmacokinetic studies on mice, plasma and brain; details: brain, i.p., 10 mg/kg single dose, male C57BL/6 mice; CL (L/hr/kg)
[2] = target: T1, human D2R/β-arrestin (Homo sapiens (Human), UniProt P14416); details: read-out: cAMP Antagonist
[3] = target: T1, human D2R/β-arrestin; assay: β-Arrestin agonist assay (PathHunter); type: cell-based; details: read-out: β-arrestin Agonist; CHO-K1 cell line expressing human D2R/β-arrestin
[4] = target: T1, human D2R/β-arrestin; assay: Gi/cAMP agonist assay (Lance Ultra cAMP, Forskolin); type: cell-based; details: read-out: cAMP Agonist; CHO-K1 cell line expressing human D2R/β-arrestin
[5] = target: T1, human D2R/β-arrestin; details: read-out: β-arrestin Antagonist

Amino acid sequences for entries named in this document (tags omitted). A change or cut given only in a name is not applied to a line headed by its entry.
UniProt P14416, whole entry: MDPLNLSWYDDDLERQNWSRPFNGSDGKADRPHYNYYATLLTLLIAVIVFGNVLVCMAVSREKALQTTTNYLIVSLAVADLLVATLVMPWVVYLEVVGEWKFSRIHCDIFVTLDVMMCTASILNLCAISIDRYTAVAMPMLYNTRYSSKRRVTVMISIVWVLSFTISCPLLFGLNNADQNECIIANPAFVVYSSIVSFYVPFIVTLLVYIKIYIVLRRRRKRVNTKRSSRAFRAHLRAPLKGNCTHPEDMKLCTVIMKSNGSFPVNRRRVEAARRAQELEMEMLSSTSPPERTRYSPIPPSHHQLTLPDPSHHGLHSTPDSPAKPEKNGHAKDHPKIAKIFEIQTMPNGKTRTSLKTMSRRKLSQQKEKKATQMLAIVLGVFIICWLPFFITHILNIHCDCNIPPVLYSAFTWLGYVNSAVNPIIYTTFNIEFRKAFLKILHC

SMILES | CL [1] [mL/min/kg] | IC50 [2] [µM] | EC50 [3] [µM] | EC50 [4] [µM] | IC50 [5] [µM]
COc1cccc(C(NC(=O)C2CCN(CCOc3ccccc3)CC2)c2ccccn2)c1 (single isomer, unassigned) | 124 |  |  |  | 
O=C(NC(c1ccc(F)cc1)c1ccccn1)C1CCN(CCOc2ccccc2)CC1 (single isomer, unassigned) [25b] |  | 1 to 10 | > 30 | > 30 | 1 to 10
O=C(NC(c1ccc(F)cc1)c1ccccn1)C1CCN(CCOc2ccccc2)CC1 (single isomer, unassigned) [25a] |  | > 30 | > 30 | 0.1 to 1 | 1 to 10

Reference: patent US10752588B2 (The Broad Institute, Inc., priority 2014, dated 2020)
